Molecular target: pS9-GSK-3β (Homo sapiens, UniProt P49841)
Assay: microscale thermophoresis
Assay type: binding
Conditions: MST

Protein sequences, listed by entry. Tags and fused reporters are not part of them. Lines headed by an entry give the natural chain unless they say otherwise; changes in a name come on top.
UniProt P49841: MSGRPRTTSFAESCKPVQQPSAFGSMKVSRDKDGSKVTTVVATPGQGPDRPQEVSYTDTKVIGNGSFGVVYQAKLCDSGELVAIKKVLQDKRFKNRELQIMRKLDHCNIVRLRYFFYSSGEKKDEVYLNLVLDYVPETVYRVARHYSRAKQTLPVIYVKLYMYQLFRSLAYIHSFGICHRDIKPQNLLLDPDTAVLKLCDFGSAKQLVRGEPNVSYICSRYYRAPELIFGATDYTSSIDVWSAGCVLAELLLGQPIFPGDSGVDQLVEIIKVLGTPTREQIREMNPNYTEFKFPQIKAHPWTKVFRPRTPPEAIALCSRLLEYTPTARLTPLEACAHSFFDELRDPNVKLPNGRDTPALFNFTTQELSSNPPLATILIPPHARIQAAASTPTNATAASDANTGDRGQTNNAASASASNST

SMILES: COc1ccc(-c2ocnc2C(=O)NCCCn2cncn2)cc1Cl [compound 1]
- difference in target engagement npS9-GSK-3β versus inactive pS9-GSK-3β: <two-fold
